Laboratory results from patent US20140072613A1, “Compositions and Methods for Treating Cutaneous Scarring” (priority 2012, published 2014).

Chains of the proteins cited; added tags and fusions are not shown. Lines headed by an entry give the natural chain unless they say otherwise; changes in a name come on top. Residues count along the entry.
UniProt P53355: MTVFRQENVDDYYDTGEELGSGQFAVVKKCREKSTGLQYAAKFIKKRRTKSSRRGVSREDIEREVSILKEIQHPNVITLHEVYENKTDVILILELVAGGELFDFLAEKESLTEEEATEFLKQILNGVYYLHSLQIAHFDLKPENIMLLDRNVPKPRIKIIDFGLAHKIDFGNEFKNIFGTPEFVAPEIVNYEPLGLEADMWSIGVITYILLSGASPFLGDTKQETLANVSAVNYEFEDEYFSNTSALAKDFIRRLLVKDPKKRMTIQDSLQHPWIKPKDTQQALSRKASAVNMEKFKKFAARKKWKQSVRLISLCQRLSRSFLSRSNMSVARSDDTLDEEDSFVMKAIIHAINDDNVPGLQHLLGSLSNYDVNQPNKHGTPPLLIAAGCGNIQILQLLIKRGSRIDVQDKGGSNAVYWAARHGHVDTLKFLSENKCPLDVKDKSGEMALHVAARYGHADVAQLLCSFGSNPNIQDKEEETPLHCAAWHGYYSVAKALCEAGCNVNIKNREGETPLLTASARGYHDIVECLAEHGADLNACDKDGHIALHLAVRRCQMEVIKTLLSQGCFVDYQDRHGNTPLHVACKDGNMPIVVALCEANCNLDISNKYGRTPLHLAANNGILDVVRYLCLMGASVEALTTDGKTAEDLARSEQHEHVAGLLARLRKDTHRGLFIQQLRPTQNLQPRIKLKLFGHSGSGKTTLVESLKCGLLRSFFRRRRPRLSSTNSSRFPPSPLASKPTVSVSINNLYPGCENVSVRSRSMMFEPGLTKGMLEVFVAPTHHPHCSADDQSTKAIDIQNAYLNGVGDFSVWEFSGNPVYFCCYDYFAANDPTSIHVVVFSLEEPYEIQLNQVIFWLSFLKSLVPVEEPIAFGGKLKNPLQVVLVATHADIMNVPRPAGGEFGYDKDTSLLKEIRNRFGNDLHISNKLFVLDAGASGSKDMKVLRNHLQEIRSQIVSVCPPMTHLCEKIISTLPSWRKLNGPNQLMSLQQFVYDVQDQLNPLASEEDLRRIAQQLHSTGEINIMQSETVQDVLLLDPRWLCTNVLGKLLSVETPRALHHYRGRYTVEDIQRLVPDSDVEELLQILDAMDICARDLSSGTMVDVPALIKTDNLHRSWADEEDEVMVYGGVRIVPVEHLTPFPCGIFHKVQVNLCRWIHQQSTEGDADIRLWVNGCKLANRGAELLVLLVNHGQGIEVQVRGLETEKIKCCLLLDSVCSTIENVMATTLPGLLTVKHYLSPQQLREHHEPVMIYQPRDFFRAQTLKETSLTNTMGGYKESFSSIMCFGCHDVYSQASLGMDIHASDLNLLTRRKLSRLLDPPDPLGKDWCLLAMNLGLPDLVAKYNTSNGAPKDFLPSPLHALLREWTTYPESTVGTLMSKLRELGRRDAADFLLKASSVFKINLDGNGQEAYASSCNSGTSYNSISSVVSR
UniProt Q13464: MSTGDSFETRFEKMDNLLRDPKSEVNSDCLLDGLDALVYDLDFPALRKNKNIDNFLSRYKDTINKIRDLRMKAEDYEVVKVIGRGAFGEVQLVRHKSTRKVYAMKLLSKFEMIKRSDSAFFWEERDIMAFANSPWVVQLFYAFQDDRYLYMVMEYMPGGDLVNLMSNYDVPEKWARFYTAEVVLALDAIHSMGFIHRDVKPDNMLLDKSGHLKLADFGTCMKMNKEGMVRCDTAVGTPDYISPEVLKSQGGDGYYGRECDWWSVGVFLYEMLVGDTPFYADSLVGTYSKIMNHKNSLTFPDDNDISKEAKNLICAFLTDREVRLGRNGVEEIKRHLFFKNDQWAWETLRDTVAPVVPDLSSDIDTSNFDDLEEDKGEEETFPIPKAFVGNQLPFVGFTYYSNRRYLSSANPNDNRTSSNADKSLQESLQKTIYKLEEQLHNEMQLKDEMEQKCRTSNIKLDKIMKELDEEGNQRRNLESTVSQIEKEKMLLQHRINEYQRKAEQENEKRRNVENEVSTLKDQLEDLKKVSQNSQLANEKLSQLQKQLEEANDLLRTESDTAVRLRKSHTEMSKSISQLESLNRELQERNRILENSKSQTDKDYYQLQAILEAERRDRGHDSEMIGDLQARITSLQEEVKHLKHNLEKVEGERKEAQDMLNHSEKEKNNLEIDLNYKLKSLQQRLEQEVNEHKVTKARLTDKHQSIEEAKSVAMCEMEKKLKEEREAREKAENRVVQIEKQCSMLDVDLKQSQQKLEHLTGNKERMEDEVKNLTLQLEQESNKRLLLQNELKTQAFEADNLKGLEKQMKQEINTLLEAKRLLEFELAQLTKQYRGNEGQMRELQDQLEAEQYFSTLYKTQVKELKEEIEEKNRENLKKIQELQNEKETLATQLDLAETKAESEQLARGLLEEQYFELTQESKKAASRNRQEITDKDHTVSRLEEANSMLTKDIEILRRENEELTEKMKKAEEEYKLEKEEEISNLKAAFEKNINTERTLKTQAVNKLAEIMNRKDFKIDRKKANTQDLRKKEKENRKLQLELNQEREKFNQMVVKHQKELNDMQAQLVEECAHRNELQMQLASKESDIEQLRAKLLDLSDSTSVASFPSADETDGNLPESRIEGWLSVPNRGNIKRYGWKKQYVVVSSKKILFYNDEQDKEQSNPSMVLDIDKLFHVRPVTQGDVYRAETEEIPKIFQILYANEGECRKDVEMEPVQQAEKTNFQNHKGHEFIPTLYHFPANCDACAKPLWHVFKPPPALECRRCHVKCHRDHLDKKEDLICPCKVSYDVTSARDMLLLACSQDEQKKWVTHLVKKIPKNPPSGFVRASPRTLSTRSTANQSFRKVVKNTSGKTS
UniProt Q16832, 22-855: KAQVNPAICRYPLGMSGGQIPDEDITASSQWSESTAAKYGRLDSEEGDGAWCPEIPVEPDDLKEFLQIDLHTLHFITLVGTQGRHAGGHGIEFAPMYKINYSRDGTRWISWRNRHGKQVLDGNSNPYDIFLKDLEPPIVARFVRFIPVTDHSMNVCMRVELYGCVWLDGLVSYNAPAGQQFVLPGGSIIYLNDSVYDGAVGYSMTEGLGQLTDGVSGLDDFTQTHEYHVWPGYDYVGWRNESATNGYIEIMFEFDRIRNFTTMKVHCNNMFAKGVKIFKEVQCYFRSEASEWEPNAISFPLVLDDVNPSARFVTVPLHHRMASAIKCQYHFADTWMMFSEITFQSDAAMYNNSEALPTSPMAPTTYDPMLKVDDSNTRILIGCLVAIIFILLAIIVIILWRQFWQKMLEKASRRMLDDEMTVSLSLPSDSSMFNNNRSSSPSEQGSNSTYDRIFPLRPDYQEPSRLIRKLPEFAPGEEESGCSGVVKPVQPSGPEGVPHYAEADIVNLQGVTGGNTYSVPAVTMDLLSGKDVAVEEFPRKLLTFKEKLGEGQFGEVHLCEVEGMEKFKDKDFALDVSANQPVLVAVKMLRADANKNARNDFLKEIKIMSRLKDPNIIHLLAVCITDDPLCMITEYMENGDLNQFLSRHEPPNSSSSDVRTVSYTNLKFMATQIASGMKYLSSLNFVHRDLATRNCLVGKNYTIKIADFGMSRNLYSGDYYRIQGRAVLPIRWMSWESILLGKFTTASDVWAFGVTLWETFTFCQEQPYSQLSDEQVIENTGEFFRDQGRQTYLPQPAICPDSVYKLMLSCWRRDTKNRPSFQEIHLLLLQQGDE
UniProt Q86Y07: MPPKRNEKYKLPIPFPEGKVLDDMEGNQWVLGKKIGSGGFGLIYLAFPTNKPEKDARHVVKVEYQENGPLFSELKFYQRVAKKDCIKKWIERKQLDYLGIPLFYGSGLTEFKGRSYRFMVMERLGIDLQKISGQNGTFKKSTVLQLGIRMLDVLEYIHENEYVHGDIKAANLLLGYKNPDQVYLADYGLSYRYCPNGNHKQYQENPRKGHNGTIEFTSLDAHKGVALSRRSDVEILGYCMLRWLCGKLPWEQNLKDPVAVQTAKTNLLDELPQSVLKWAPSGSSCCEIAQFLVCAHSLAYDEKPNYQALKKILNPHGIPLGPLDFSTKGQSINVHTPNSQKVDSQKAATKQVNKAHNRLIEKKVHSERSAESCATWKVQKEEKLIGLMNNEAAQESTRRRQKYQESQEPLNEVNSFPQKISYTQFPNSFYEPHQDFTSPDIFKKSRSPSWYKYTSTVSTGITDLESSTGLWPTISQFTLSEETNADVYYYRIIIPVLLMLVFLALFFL
UniProt Q9H1R3: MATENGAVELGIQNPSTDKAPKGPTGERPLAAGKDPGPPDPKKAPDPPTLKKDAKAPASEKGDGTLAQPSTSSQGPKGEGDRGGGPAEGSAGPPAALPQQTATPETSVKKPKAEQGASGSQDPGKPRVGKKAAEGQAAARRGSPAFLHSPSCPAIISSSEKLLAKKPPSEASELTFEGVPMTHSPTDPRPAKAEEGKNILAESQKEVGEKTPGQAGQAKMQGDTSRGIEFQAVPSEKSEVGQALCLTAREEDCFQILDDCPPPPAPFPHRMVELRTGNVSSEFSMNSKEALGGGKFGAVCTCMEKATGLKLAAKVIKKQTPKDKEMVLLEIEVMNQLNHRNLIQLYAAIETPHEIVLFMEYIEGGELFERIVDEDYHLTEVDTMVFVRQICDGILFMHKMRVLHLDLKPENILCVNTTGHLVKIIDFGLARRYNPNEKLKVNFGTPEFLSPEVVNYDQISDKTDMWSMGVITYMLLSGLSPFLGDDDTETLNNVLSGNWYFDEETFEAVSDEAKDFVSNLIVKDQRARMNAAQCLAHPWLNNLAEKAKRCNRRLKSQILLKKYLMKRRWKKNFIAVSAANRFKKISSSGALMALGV

Legend:
Assay type in all cases: biochemical
266 human kinases [1] = target: 266 human kinases (Homo sapiens, UniProt P24941); conditions: 100 μM
From the text: (§1) Specifically, in these assays, a positively charged substrate is phosphorylated with a radiolabeled phosphate group from an ATP if the kinase is not inhibited by an inhibitor peptide. The positively charged substrate then is attracted to a negatively charged filter membrane, quantified with a scintillation counter, and compared to a 100% activity control.

266 human kinases [2] = target: 266 human kinases (Homo sapiens, UniProt P53355); conditions: DAPK1(h); 100 μM
From the text: as §1

266 human kinases [3] = target: 266 human kinases (Homo sapiens, UniProt P50750); conditions: CDK9/cyclin T1(h); 100 μM
From the text: as §1

266 human kinases [4] = target: T1, 266 human kinases (Homo sapiens, UniProt Q8IWQ3); conditions: BrSK2(h); 100 μM
T1 sequence (Q8IWQ3 1-736): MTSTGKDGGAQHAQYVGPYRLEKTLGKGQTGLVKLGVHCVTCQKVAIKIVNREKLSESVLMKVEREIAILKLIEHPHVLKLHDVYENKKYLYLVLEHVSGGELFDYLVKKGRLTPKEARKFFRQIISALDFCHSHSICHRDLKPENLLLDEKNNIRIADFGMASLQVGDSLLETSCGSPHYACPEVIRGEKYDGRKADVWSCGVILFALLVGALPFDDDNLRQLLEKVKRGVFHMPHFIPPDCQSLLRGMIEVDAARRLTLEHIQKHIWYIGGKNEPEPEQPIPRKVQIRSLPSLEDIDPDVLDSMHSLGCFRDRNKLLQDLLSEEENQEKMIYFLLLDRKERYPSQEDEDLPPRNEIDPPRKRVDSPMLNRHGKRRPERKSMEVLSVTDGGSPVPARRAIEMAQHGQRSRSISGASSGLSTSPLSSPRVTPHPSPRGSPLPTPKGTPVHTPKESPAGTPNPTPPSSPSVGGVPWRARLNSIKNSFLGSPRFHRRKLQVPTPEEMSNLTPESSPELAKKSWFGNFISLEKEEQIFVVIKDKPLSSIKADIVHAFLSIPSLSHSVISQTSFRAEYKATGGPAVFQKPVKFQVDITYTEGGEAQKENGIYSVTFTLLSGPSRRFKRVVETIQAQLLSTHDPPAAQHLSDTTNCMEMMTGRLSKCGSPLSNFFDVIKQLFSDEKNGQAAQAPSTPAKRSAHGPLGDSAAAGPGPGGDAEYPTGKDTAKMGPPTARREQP
From the text: as §1

266 human kinases [5] = target: 266 human kinases (Homo sapiens, UniProt P36888, D835Y); conditions: Flt3(D835Y)(h); 100 μM
From the text: as §1

266 human kinases [6] = target: 266 human kinases (Homo sapiens, UniProt Q13464); conditions: ROCK-I(h); 100 μM
From the text: as §1

266 human kinases [7] = target: 266 human kinases (Homo sapiens, UniProt Q16832); conditions: DDR2(h); 100 μM
From the text: as §1

266 human kinases [8] = target: 266 human kinases (Homo sapiens, UniProt Q86Y07); conditions: VRK2(h); 100 μM
From the text: as §1

266 human kinases [9] = target: 266 human kinases (Homo sapiens, UniProt Q9H1R3); conditions: MLCK(h); 100 μM
From the text: as §1

266 human kinases [10] = target: T2, 266 human kinases (Homo sapiens, UniProt P52333); conditions: JAK3(h); 100 μM
T2 sequence (P52333 1-1124): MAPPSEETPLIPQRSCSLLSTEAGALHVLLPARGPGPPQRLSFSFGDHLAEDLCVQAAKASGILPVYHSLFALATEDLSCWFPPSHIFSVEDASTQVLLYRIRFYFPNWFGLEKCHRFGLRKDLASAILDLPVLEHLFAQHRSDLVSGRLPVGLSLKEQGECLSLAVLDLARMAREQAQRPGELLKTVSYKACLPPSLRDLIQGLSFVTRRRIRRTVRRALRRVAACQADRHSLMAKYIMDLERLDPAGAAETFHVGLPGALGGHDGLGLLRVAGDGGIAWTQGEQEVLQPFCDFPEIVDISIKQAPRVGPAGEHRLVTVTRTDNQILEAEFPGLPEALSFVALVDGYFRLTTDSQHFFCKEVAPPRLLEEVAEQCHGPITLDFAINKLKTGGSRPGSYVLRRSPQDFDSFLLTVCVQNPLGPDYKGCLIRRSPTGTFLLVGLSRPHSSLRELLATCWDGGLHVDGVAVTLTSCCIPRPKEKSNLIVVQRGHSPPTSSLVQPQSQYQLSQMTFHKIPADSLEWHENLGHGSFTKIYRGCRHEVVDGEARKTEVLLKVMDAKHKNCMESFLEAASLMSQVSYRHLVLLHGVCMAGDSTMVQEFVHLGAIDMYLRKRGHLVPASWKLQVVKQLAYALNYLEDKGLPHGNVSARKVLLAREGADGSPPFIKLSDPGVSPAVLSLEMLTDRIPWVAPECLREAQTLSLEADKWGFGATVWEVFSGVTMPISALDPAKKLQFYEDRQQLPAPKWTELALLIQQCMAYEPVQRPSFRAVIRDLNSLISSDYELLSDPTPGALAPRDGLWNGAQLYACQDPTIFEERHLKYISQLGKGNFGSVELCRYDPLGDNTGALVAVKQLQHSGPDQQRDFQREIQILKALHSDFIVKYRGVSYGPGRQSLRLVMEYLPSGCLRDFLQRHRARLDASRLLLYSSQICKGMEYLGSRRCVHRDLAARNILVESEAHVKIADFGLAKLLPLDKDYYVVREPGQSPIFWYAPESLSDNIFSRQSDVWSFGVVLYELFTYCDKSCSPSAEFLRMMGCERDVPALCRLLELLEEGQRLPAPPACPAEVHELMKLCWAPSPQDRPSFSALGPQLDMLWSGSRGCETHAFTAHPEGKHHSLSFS
From the text: as §1

What does the source list for “YARAAARQARAKALNRQLGVA (mammal) [MMI-0200]”?
% activity (266 human kinases [1]; CDK2/cyclinA(h)): 114%; % activity (266 human kinases [1]; CDK2/cyclinE(h)): 112%; % activity (266 human kinases [2]): 113%; % activity (266 human kinases [3]): 103%; % activity (266 human kinases [4]): 102%; % activity (266 human kinases [5]): 115%; % activity (266 human kinases [6]): 117%; % activity (266 human kinases [7]): 104%; % activity (266 human kinases [8]): 109%; % activity (266 human kinases [9]): 103%; % activity (266 human kinases [10]): 117%

Where two headings read alike, the source gives them in different places.
